SMILES strings stand for the structures.

The target of the test is T1, Phosphatidylinositol 4,5-bisphosphate 3-kinase catalytic subunit delta isoform (Homo sapiens, UniProt O00329).
T1 sequence (O00329 whole entry): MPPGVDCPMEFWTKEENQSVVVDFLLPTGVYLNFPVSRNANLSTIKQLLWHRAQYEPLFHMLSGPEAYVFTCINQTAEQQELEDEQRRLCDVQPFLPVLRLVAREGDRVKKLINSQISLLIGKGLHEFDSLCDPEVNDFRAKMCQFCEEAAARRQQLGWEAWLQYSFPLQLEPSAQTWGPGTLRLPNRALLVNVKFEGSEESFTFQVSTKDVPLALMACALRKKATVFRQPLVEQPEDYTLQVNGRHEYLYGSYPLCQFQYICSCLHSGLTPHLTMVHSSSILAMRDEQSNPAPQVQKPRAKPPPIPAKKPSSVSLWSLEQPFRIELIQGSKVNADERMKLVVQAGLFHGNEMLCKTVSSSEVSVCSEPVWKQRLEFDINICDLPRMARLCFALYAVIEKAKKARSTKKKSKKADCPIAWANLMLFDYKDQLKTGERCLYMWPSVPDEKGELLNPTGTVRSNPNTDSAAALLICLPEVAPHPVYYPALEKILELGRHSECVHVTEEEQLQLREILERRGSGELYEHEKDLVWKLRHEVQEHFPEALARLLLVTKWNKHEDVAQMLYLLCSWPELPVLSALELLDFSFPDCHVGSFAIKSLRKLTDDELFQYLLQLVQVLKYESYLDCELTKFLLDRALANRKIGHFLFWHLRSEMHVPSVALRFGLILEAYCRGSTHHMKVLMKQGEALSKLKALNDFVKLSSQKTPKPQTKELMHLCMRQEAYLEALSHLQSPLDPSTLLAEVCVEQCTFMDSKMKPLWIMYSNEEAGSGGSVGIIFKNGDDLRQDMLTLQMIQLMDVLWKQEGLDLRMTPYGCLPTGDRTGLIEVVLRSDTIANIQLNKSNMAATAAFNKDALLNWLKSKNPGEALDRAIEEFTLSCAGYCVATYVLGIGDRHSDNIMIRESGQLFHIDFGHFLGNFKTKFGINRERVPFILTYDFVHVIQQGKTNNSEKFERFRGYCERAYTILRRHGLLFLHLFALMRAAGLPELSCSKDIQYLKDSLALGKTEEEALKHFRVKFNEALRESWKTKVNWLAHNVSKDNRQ
The experiment in a line: PI3K Delta Assay: In some embodiments, the PI3Kδ inhibitor is selective. By ¿selective¿ is meant that the compound binds to or inhibits a kinase with greater affinity or potency, respectively, compared to at least one other kinase. In some embodiments, the PI3Kδ inhibitors are selective inhibitors of PI3Kδ (e.g., over PI3Kα, PI3Kβ and PI3Kγ). In some embodiments, selectivity can be at least about 2-fold, 5-fold, 10-fold, at least about 20-fold, at least about 50-fold, at least about 100-fold, at least about 200-fold, at least about 500-fold or at least about 1000-fold. Selectivity can be measured by methods routine in the art. In some embodiments, selectivity can be tested at the Km ATP concentration of each enzyme. In some embodiments, the selectivity of compounds described herein can be determined by cellular assays associated with particular PI3K kinase activity.
The molecule `Cc1csc2nc(C(C)Nc3ncnc4[nH]cnc34)c(-c3cccc(F)c3)c(=O)n12` (stereo not drawn) displayed an IC50 of less than 50 nM.
The result for `CC(Nc1ncnc2[nH]cnc12)c1cc(Cl)c2ccnnc2c1-c1cccc(F)c1` (single isomer, unassigned) reads less than 50 nM; that for `Cc1csc2nc([C@H](C)Nc3ncnc4[nH]cnc34)c(-c3cccc(F)c3)c(=O)n12` [DEZAPELISIB], less than 50 nM.

Broadly, the IC50 is the concentration that gives 50% inhibition. A lower IC50 goes with higher potency.

For the origin of these results see ChEMBL document CHEMBL5725512, “Fused bicyclic 1,2,4-triazine compounds as TAM inhibitors” (2017).
